Where two headings read alike, the source gives them in different places.
Tested on: TA98
Details: TA98 −S9, positive control 200 μg/dish
Procedure: 4.3 Sample processing and preparation: 4000 mg sample was weighted and distilled water was added into the sample to 20 ml, then the mixture was blended to obtain a 200 mg/ml of solution. 3, 1, 0.3 and 0.1 mL of this solution were taken, respectively and each was added with sterile distilled water to 10 ml to obtain a solution in the concentration of 60 mg/ml, 20 mg/ml, 6 mg/ml and 2 mg/ml, respectively.
4.4 Test doses: 0.2 mg/dish, 0.6 mg/dish, 2 mg/dish, 6 mg/dish and 20 mg/dish
4.7 Test strains: TA97, TA98, TA100 and TA102, with qualitied biological characters, provided by Biochemistry Dept., California University, CA, America. The concentration of the bacteria liquid used for the test was 1-2×10^9/ml.
A healthy adult SD rat with a body weight of about 150 g was selected. Polychlorinatedbiphenyl was dissolved into corn oil to obtain a solution of 200 mg/ml. The above solution was injected (i.p.), in a sterile operation, into the rat in a dose of 500 mg/kg. 5 days later, the animal was sacrificed via decapitation. The liver was taken out and weighted, then rinsed several times with 0.15 mol/L of fresh cooled solution of potassium chloride. The amount of the potassium chloride solution was 3 ml/g liver (wet weight). The beaker in which the rinsed liver put was removed into an ice bath, and the liver was cut into pieces with a pair of sterilized scissors. […]

With p-nitroquinoline as the substance, how does the Re-established colonies (first test) read?
The Re-established colonies was 1108 ± 73 colonies/sish.

And the Re-established colonies (second test)?
Its Re-established colonies is 868 ± 60 colonies/sish.
